Consider 6 compounds from patent US12599672B2, “KRAS proteolysis targeting chimeras” (PAQ Therapeutics Inc., priority 2023, dated 2026).

Chains of the proteins cited; added tags and fusions are not shown. Residues count along the entry.
UniProt P01116, 1-188 isoform 2 G12D: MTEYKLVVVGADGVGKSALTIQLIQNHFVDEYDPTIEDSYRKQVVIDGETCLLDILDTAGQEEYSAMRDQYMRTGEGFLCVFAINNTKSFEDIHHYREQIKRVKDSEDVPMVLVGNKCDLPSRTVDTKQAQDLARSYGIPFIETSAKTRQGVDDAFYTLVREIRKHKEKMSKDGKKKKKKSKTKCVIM
UniProt P01116, 1-188 isoform 2 G12V: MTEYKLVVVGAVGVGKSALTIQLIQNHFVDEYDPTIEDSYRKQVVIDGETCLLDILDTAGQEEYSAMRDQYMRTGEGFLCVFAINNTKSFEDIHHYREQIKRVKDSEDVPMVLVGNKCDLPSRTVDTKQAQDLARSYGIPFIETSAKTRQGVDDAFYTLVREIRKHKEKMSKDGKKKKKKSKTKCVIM
UniProt P01116, 1-188 isoform 2: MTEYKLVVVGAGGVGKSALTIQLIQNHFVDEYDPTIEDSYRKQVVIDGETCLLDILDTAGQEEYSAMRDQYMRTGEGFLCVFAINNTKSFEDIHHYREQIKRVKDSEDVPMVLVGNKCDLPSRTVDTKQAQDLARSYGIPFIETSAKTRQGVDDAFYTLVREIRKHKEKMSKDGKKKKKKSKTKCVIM

Where two headings read alike, the source gives them in different places. Bounds are passed on as bounds.

The target in one assay is KRAS G12D (Homo sapiens, UniProt P01116, G12D). Put plainly: KRAS G12D HiBit assay. The conditions noted are these: read-out: Average DC50, AsPc-1-KRAS (G12D)-HiBit-KI cell, compound treatment for 24 hours, absolute DC50. On the technique in general: With HiBiT, luminescence reflects the tagged protein that the partner subunit can reach.
Another assay concerns the target KRAS G12V (Homo sapiens, UniProt P01116, G12V). The assay is described as follows: KRAS G12V HiBit assay. The conditions noted are these: read-out: Average DC50; SW620-KRAS (G12V)-HiBit-KI cells, compound treatment for 24 hours, class symbols.
The target in another assay is KRAS (Homo sapiens, UniProt P01116). The assay is described as follows: KRASamp MSD assay. The conditions noted are these: read-out: Average DC50; KE39 (KRAS amplified) cells, treated with test compounds for 24 hr, MSD readout of KRAS degradation. As for the experimental part: KE39 (KRAS amplified) cells were cultured in RPMI 1640 medium (Gibco, 11875093), seeded into 96 well plate and treated with test compounds for 24 hr. The cells were washed with PBS and lysed in plate for 1 hr at 4° C. with agitation in RIPA buffer (Cat No. BP-115D) supplemented with protease and phosphatase inhibitor cocktail. The lysates were loaded into MSD plate coated with KRAS capture antibody (LSBio, C175665, 1:1000) for 1 h at RT with agitation. The plate was then washed three times with TBST and incubated with KRAS detection antibody (Abcam, Ab275876. 1:2000) for 1 h at RT. After washing three times with TBST, the plate was incubated with secondary detection antibody GAR (1:500) for 1 hr at RT followed with 3×TBST washing. 2×MSD reading buffer was added into individual wells and the plate was finally read by MSD reader (MSD, SQ 120 MM). The recombinant WT KRAS protein was used for standard curve generation and protein quantification. The degradation activity was calculated using the following formula: […]
DC50 was calculated by fitting the curve using GraphPad Prism v8.0.2 (analysis 263): […]

On to `CCc1c(F)ccc2cc(O)cc(-c3ncc4c(N5CCC[C@@](C)(O)C5)nc(OC[C@@]56CCCN5[C@H](CN5CCC(OC7CCN(c8ccc9c(c8)n(C)c(=O)n9C8CCC(=O)NC8=O)CC7)CC5)CC6)nc4c3F)c12` (stereo partly drawn), for which the DC50 on KRAS G12D (class symbols) is under 0.1 µM; at KRAS G12V it was 0.01 to 0.1 µM.
`CCc1c(F)ccc2cc(O)cc(-c3ncc4c(N5CCC[C@@](C)(O)C5)nc(OC[C@@]56CCCN5[C@H](COC5CCc7cc(CN8CCC(c9ccc%10c(c9)n(C)c(=O)n%10C9CCC(=O)NC9=O)CC8)ccc75)CC6)nc4c3F)c12` (stereo partly drawn): the DC50 is under 0.1 µM on KRAS G12D (class symbols) and under 0.01 µM on KRAS G12V.
In the case of `CCc1c(F)ccc2cc(O)cc(-c3ncc4c(N5CCC[C@@](C)(O)C5)nc(OC[C@]56CCCN5[C@H](CN5CCC(CN7CCC(c8ccc9c(c8)n(C)c(=O)n9C8CCC(=O)NC8=O)CC7)CC5)CC6)nc4c3F)c12` (stereo partly drawn), the DC50 on KRAS G12D (class symbols) is under 0.1 µM; on KRAS G12V it was 0.01 to 0.1 µM; at KRAS, 0.001 to 0.01 µM.
In the case of `CCc1c(F)ccc2cc(O)cc(-c3ncc4c(N5CCC[C@@](C)(O)C5)nc(OC[C@@]56CCCN5[C@@H](CN5CCC(CN7CCC(c8ccc9c(c8)n(C)c(=O)n9C8CCC(=O)NC8=O)CC7)CC5)CC6)nc4c3F)c12` (stereo partly drawn), the DC50 at KRAS G12D (class symbols) was under 0.1 µM; at KRAS G12V, 0.01 to 0.1 µM; on KRAS, 0.001 to 0.01 µM.
Take `CCc1c(F)ccc2cc(O)cc(-c3ncc4c(N5CCC[C@@](C)(O)C5)nc(OC[C@@]56CCCN5[C@H](CN5CCC(Cc7ccc8c(c7)n(C)c(=O)n8C7CCC(=O)NC7=O)CC5)CC6)nc4c3F)c12` (stereo partly drawn): the DC50 at KRAS G12D (numeric bounds given in place of class symbols) and at KRAS G12V was over 0.1 µM each time.
Take `CCc1c(F)ccc2cc(O)cc(-c3ncc4c(N5CCC[C@@](C)(O)C5)nc(OC[C@@]56CCCN5[C@H](CNCC5CCC(CN7CCC(c8ccc9c(c8)n(C)c(=O)n9C8CCC(=O)NC8=O)CC7)CC5)CC6)nc4c3F)c12` (stereo partly drawn): the results for the DC50 at KRAS G12D (class symbols), at KRAS G12V and on KRAS were under 0.1 µM, 0.01 to 0.1 µM and 0.001 to 0.01 µM, respectively.
